The target of this experiment is HsMetAP2 (Homo sapiens, UniProt P50579). Nature of the experiment: Inhibition of HsMetAP2 (orthologous MetAP selectivity). It is filed as biochemical. Particulars: read-out: inhibit HsMetAP2 (avidity).

Protein sequences, listed by entry. Tags and fused reporters are not part of them.
UniProt P50579, whole entry: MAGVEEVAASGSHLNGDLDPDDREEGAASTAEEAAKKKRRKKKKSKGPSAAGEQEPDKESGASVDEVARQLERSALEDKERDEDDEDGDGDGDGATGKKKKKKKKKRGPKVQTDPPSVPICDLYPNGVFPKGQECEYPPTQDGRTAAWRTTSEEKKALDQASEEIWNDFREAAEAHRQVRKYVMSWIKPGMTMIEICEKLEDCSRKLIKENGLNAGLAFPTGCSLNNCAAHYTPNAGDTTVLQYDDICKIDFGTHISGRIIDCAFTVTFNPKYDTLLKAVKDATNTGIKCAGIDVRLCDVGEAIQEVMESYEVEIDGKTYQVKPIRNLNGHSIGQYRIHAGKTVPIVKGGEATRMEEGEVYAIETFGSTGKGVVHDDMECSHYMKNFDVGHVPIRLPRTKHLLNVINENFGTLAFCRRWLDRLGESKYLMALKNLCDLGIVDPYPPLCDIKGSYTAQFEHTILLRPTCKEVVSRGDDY

Data on one molecule can be found in patent publication US10472315B2, “Inhibitors of methionine aminopeptidases and methods of treating disorders” (THE JOHNS HOPKINS UNIVERSITY, priority 2009, dated 2019).

Take `O=C1C(Cl)=C(N2C(=O)c3c(Cl)c(Cl)c(Cl)c(Cl)c3C2=O)C(=O)c2ccccc21` [Compound 2]: the IC50 turned out to be 2310 nM.
